Data on two compounds can be found in ChEMBL document CHEMBL1133251, “Synthesis and biological evaluation of 1-azabicyclo-[3.2.1]octanes: new dopamine transporter inhibitors” (Bioorg Med Chem Lett, 2000).

The chains behind the UniProt entries cited, without tags or fusion partners.
UniProt P23977, whole entry: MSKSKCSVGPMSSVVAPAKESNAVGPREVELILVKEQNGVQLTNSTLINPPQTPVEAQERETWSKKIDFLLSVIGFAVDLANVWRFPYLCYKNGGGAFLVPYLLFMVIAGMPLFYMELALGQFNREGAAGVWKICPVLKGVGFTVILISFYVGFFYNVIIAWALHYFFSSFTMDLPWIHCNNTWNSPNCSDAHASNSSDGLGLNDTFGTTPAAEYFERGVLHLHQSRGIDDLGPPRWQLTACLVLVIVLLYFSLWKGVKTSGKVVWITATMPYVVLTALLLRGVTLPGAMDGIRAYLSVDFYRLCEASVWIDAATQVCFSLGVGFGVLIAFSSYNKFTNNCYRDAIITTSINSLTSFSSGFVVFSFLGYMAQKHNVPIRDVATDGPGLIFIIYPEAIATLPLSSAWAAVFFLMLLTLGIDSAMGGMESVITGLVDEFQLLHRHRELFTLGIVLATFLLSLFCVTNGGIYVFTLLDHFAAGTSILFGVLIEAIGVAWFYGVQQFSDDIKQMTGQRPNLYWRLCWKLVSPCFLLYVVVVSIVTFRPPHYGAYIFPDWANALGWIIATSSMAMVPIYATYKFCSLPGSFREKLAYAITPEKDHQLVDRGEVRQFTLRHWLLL
UniProt Q9WTR4, whole entry: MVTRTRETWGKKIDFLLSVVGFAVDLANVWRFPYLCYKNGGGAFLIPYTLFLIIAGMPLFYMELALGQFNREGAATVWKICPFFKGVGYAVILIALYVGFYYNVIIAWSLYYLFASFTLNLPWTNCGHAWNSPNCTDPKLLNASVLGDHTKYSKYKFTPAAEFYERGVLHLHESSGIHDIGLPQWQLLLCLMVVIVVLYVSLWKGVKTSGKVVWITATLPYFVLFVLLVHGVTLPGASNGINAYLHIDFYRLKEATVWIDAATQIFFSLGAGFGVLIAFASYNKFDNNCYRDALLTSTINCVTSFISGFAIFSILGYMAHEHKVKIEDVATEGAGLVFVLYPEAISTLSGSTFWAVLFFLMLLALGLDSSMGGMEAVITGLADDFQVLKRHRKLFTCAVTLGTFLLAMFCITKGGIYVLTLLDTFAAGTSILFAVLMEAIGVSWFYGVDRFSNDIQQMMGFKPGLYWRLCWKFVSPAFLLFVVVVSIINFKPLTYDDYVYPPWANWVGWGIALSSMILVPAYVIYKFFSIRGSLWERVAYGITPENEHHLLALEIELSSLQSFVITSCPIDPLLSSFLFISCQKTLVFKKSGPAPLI

Structures are written as SMILES.

The target in experiment [1] is Sodium-dependent dopamine transporter (Rattus norvegicus, UniProt P23977). Nature of the experiment: Inhibition of [3H]- Mazindol binding to dopamine transporter of rat striatal membrane.
Experiment [2] has as its target Norepinephrine transporter (Rattus norvegicus, UniProt Q9WTR4). Nature of the experiment: Inhibition of [3H]NE binding to norepinephrine transporter of rat brain synaptosomes. Format: subcellular.

Regarding `Clc1ccc([C@@H]2CCN3C/C(=N\OCc4ccccc4)C2C3)cc1` (some centres not stated), the affinity in experiment [1], expressed as Ki, was 1000 nM. On to `COC(=O)[C@H]1[C@@H](OC(=O)c2ccccc2)C[C@@H]2CC[C@H]1N2C` [COCAINE], for which, in experiment [2], the inhibitory constant (Ki) came out at 186 nM.
